{"sequences": {"note": "Chains of the proteins cited; added tags and fusions are not shown.", "UniProt P08183, whole entry": "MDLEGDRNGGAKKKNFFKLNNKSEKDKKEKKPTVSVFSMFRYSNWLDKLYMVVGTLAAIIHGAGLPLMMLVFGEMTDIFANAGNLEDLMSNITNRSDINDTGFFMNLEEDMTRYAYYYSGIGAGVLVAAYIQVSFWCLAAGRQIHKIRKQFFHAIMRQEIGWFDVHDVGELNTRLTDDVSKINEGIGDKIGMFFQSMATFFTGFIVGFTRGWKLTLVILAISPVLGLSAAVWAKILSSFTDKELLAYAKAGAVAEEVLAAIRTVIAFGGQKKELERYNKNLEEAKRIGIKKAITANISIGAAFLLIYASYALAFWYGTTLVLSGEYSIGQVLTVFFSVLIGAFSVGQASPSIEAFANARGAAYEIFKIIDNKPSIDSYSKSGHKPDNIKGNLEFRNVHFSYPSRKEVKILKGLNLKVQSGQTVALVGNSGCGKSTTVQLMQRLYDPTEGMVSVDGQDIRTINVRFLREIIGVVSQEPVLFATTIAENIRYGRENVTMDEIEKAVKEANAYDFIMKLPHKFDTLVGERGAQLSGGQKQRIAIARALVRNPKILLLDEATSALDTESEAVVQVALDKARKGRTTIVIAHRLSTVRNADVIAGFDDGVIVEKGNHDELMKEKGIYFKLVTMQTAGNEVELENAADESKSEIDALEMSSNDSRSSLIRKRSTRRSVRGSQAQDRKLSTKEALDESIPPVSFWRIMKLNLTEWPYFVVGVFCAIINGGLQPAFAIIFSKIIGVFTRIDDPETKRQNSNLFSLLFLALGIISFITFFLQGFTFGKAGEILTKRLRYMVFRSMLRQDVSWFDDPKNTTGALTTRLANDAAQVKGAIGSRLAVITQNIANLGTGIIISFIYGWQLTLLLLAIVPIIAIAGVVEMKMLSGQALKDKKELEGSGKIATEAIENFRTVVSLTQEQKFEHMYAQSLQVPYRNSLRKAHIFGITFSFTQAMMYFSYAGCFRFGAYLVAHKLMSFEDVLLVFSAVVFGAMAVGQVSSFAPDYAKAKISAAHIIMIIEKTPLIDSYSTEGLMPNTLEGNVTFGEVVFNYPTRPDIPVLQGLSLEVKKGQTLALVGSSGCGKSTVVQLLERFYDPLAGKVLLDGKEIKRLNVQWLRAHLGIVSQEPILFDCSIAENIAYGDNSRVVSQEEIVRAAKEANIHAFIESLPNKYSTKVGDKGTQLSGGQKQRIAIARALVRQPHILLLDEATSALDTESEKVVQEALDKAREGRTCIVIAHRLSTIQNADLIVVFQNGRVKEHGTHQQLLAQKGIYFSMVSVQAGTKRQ"}, "source": "paper PMC4932475", "about": "“Evaluation of P-Glycoprotein Inhibitory Potential Using a Rhodamine 123 Accumulation Assay” (Pharmaceutics, 2016)", "target": "P-gp (Homo sapiens, UniProt P08183)", "test": "cell-based"}
{"smiles": "COC(=O)C1=C(C)NC(C)=C(C(=O)OCCN(C)Cc2ccccc2)C1c1cccc([N+](=O)[O-])c1", "note": "(stereo not shown) [Nicardipine, nicardipine]", "values": [{"measurement": "IC50", "value": "19.4 ± 1.5", "unit": "µM"}]}
